± gives the expanded uncertainty stated by the source.
Conditions: Capillary rise

CCCCOCCCC [dibutyl ether]
Conditions	surface tension liquid-gas [mN/m]
263.17 K	25.79 ± 0.42
268.18 K	25.35 ± 0.42
273.18 K	24.84 ± 0.42
278.19 K	24.39 ± 0.42
283.2 K	23.89 ± 0.42
288.19 K	23.58 ± 0.42
293.18 K	23.05 ± 0.42
298.11 K	22.59 ± 0.42
303.17 K	22.22 ± 0.42
308.05 K	21.73 ± 0.42
313.18 K	21.25 ± 0.42
318.13 K	20.68 ± 0.42
323.2 K	20.26 ± 0.42
328.2 K	19.76 ± 0.42
333.18 K	19.41 ± 0.41
338.18 K	18.82 ± 0.41
343.17 K	18.33 ± 0.41
348.18 K	17.87 ± 0.41
353.17 K	17.47 ± 0.41
358.18 K	16.96 ± 0.41
363.19 K	16.54 ± 0.41
368.19 K	16.09 ± 0.41
373.17 K	15.5 ± 0.41

Reference: the NIST ThermoML archive (doi:10.1021/je900665a)
